These are literature values, as cited in patent publication US6420552B1, “Syntheses of 4-alkyl chromogenic glycosides and 7-alkyl chromogenic glycosides of N-acetylneuraminic acids” (priority 1999, dated 2002).

Sequences of proteins named here, by UniProt entry; tags and fusion partners are left off. A change or cut given only in a name is not applied to a line headed by its entry.
UniProt P11235: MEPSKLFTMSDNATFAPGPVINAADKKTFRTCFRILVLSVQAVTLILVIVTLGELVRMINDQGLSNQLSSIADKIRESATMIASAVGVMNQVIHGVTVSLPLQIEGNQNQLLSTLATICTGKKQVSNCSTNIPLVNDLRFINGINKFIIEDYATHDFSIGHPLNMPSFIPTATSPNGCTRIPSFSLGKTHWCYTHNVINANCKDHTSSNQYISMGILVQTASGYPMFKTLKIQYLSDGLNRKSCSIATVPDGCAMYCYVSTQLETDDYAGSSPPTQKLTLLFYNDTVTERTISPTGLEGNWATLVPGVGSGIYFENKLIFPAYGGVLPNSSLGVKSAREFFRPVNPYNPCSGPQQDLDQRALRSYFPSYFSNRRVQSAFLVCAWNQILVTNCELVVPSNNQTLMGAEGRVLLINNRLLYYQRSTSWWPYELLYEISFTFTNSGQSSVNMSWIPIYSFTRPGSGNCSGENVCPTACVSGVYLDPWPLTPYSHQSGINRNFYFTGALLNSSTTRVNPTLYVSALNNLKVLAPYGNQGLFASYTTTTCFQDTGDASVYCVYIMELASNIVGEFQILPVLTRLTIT
UniProt P08492: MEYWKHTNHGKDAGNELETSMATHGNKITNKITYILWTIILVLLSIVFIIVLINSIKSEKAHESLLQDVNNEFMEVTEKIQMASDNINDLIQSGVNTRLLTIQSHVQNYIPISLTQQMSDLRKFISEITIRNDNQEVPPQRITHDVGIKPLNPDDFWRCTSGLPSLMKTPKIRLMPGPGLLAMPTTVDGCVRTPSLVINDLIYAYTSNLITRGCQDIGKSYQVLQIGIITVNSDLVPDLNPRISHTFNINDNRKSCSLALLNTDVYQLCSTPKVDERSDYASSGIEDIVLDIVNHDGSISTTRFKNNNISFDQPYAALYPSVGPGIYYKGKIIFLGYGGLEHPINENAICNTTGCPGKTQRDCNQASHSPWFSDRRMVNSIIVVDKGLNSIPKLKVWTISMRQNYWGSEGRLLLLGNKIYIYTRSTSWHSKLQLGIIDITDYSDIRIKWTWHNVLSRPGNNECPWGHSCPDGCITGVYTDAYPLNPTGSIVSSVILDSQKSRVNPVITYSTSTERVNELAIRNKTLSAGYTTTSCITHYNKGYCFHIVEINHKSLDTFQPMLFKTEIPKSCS

In one data set the target is mumps neuraminidase (Mumps virus genotype B, UniProt P11235). Conditions: substrate activity, result in words.
For data set [1], the target named is enzyme of parainfluenza type 3 (Human parainfluenza 3 virus, UniProt P08492). Conditions: substrate activity, result in words.

Take “5-bromo-3-indolyl 4-O-methyl Neu5Ac ketoside”: the “hydrolysis / colour development by neuraminidase activity of mumps” value on mumps neuraminidase is given as “acted upon”. Moreover, the “hydrolysis / colour development by the enzyme of parainfluenza type 3” value in data set [1] was “not significantly”.
